From EP4840874A1, “NOVEL PEPTIDE HAVING ACTIVITIES OF INHIBITING MUSCLE LOSS AND PROMOTING MUSCLE GROWTH, AND USES THEREOF” (dated 2026)

How the values were obtained:
C2C12 myoblasts [1] = experiment: Early/mid/late differentiation protein expression (Western blot); conditions: 3 days differentiation
Description: To determine the effect of the peptide prepared in Preparation Example 1 on the differentiation of myoblasts into muscle cells/muscle fibers, the expression levels of protein markers related to early/mid/late differentiation in myoblasts were evaluated through Western blot analysis.
C2C12 cells (mouse myoblast line) were cultured in DMEM medium containing 1% P/S and 2% BCS. When cell confluency reached approximately 70 to 80%, cells were seeded into 6-well culture plates at a density of 5 x 10^5 cells/well by 2 ml. Subsequently, when cell confluency reached 100%, the medium was replaced with differentiation medium (1% P/S, 2% horse serum), and the peptide of SEQ ID NO: 1 was added at a concentration of 5 µM or 50 µM. Subsequently, the differentiation medium and the peptide of SEQ ID NO: 1 were replaced every two days. Three days after the first replacement, lysis buffer was added to lyse the cells, which was then centrifuged at 4°C and 12,000 rpm for 30 minutes to obtain the protein, which was quantified using a BCA kit. SDS-PAGE was performed on the protein, and the protein was electrotransferred onto a membrane. After blocking the protein-electrophoresed membrane with 5% skim milk, the anti-Myf5 primary antibody (Abcam, UK), the anti-MyoG primary antibody (Santa Cruz, USA), and the anti-α-actinin primary antibody (Santa Cruz, USA) were reacted with the anti-β-actin primary antibody (Santa Cruz, USA) as a loading control overnight at 4°C. The membrane was washed with PBS-T, and Peroxidase-conjugated AffiniPure Goat Anti-Rabbit IgG (H+L) secondary antibody (Jackson immunoResearch, USA) and Peroxidase-conjugated AffiniPure Goat Anti-Mouse IgG (H+L) secondary antibody (Jackson immunoResearch, USA) were reacted at room temperature for 1 hour. After washing the membrane again with PBS-T, visualization was performed using Gel Doc (Bio-Rad, Hercules, CA, USA) with Western detection reagent (Elpis Biotech, Daejeon, Korea).

C2C12 myoblasts [2] = experiment: Myotube synthesis capacity (microscopy, myotube thickness); conditions: 5 or 50 µM, 3 days after differentiation induction; peptide concentration-dependent
Description: To analyze the effect of the peptide prepared in Preparation Example 1 on myotube synthesis capacity in myoblasts, the thickness of the myotubes was compared by observing differentiated myoblasts under a microscope.
C2C12 cells (mouse myoblast line) were cultured in DMEM medium containing 1% P/S and 2% BCS. When cell confluency reached approximately 80%, cells were seeded into 6-well culture plates at a density of 5 x 10^5 cells/well with 2 ml aliquots. Subsequently, when cell confluency reached 100%, the medium was replaced with differentiation medium (1% P/S, 2% horse serum), and the peptide of SEQ ID NO: 1 was added at a concentration of 5 µM or 50 µM. Afterwards, the differentiation medium and SEQ ID NO: 1 peptide were replaced every two days, and images were taken with an optical microscope (FLEXACAM C1, Leica, Germany) 3 days after differentiation induction to compare the thickness of the myotubes.

C2C12 myoblasts [3] = experiment: Early/mid-stage differentiation gene expression (RT-PCR); conditions: 3 days differentiation
Description: To determine the effect of the peptide prepared in Preparation Example 1 on the differentiation of myoblasts into muscle cells/muscle fibers, the expression levels of gene markers related to early/mid-stage differentiation in myoblasts were evaluated through RT-PCR analysis.
C2C12 cells (mouse myoblast line) were cultured in DMEM medium containing 1% P/S and 2% BCS. When cell confluency reached approximately 70 to 80%, cells were seeded into 6-well culture plates at a density of 5 x 10^5 cells/well by 2 ml. Subsequently, when cell confluency reached 100%, the medium was replaced with differentiation medium (1% P/S, 2% horse serum), and the peptide of SEQ ID NO: 1 was added at a concentration of 5 µM or 50 µM. Afterwards, the differentiation medium and the peptide of SEQ ID NO: 1 were replaced every two days, and three days after the first replacement, the cells were harvested and RNA was extracted using Trizol (Thermo Fisher Scientific, USA). DNA complementary to the extracted RNA was obtained using TOPScript™ RT DryMIX (enzynomics, Korea), and then polymerase chain reaction (PCR) was performed on early/mid-stage differentiation marker genes using TOPsimple™ DryMIX-nTaq (enzynomics, Korea). The mRNA expression levels of the markers were then compared under each sample treatment condition by running the samples on a 1.5% agarose gel. The primer sequences of the genes used in the experiment and the primer sequence of the GAPDH gene as a control are shown in Table 2.

HepG2 hepatocytes = experiment: Fat synthesis-related gene expression in oleic acid-treated hepatocytes (RT-PCR); conditions: 500 µM oleic acid, 5 or 50 µM peptide, 48 hours
Description: To determine the effect of the peptide prepared in Preparation Example 1 on the expression of genes related to lipid synthesis, the expression levels of lipid synthesis-related gene markers in hepatocytes were evaluated through RT-PCR analysis.
HepG2 cells (human hepatocyte line) were cultured in DMEM medium containing 1% P/S and 10% FBS. When cell confluency reached approximately 70 to 80%, cells were seeded into 12-well culture plates at a density of 1 x 10^5 cells/well by 1 ml. Subsequently, when cell confluency in the 12-well culture plates reached approximately 70 to 80%, the medium was replaced with serum-free DMEM medium. After 4 hours, the medium was replaced with serum-free DMEM (1% BSA) supplemented with 500 µM oleic acid (Sigma, USA), and the cells were treated with the peptide of SEQ ID NO: 1 at concentrations of 5 µM or 50 µM and cultured for 48 hours. After culture, the cells were harvested and RNA was extracted using Trizol (Thermo Fisher Scientific, USA). DNA complementary to the extracted RNA was obtained using TOPScript™ RT DryMIX (enzynomics, Korea), and then polymerase chain reaction (PCR) was performed on lipid synthesis-related genes using TOPsimple™ DryMIX-nTaq (enzynomics, Korea). The mRNA expression levels of the markers were then compared under each sample treatment condition by running the samples on a 1.5% agarose gel. […]

CC(C)[C@H](NC(=O)[C@@H](NC(=O)[C@@H](N)CC(=O)O)[C@@H](C)O)C(=O)N[C@@H](CCC(=O)O)C(=O)N[C@@H](CC(N)=O)C(=O)O
expression of Myf5 protein (C2C12 myoblasts [1]; 5 or 50 µM): increased in a concentration-dependent manner | expression of MyoG protein (C2C12 myoblasts [1]; 5 or 50 µM): increased in a concentration-dependent manner | expression of α-actinin protein (C2C12 myoblasts [1]; 5 or 50 µM): increased in a concentration-dependent manner | Myf5 protein expression level increase (C2C12 myoblasts [1]; peptide concentration 50 µM): more than 37 fold | thickness of the myotubes (C2C12 myoblasts [2]): fused with surrounding myotubes to form thicker myotubes | mRNA expression level of Myf4 (C2C12 myoblasts [3]; 5 or 50 µM): significantly increased in a peptide concentration-dependent manner | mRNA expression level of Myf5 (C2C12 myoblasts [3]; 5 or 50 µM): significantly increased in a peptide concentration-dependent manner | mRNA expression level of Myf6 (C2C12 myoblasts [3]; 5 or 50 µM): significantly increased in a peptide concentration-dependent manner | mRNA expression level of MyoG (C2C12 myoblasts [3]; 5 or 50 µM): significantly increased in a peptide concentration-dependent manner | mRNA expression level of Myf4 increase (C2C12 myoblasts [3]; peptide concentration 50 µM): more than 100 fold | mRNA expression level of Myf6 increase (C2C12 myoblasts [3]; peptide concentration 50 µM): more than 48 fold | mRNA expression level of FAS increased by oleic acid (HepG2 hepatocytes): decreased in a peptide concentration-dependent manner | mRNA expression level of SREBP1 increased by oleic acid (HepG2 hepatocytes): decreased in a peptide concentration-dependent manner
